According to PubChem BioAssay AID696 (Sanford-Burnham Center for Chemical Genomics, 2007):
The entries are a selection whose mix differs from that of the whole data set. Some of these compounds have results that are not shown, active ones among them. Calls of active or inactive are those of the source. Cut-off read from the data, not from the text of the source: active = activation fold above about 2; inactive = the rest.

Chains of the proteins cited; added tags and fusions are not shown.
UniProt P05187, whole entry: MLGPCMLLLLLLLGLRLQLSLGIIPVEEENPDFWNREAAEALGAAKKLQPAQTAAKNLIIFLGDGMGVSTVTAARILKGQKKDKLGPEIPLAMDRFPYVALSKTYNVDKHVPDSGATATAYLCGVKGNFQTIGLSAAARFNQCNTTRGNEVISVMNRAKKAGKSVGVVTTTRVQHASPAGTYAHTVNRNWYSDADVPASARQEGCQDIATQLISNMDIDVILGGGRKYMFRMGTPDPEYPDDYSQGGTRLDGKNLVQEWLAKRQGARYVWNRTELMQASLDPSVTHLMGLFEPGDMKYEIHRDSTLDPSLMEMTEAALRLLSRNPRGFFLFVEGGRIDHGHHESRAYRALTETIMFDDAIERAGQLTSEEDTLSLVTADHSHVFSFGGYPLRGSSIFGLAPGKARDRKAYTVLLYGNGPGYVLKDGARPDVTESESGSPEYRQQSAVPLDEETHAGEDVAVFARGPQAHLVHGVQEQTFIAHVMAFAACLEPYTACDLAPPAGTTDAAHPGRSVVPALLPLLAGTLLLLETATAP

Biological target: Alkaline phosphatase, placental type (Homo sapiens) (UniProt P05187)
Assay: PLAP enzyme activators, biochemical, luminescence, HTS (AID 696)
Conditions: purified PLAP enzyme, luminescent substrate read-out; at 20 µM; hits give high values

SMILES	activation fold
CC(C)N1C(=O)CC2(CCN(CCOC(=O)C(O)(c3ccccc3)c3ccccc3)CC2)C1=O	inactive: 1.4
CN(C)c1cccc(C(=O)NCC2(N(C)C)CCCCC2)c1	inactive: 0.9
O=C(OC1CN2CCC1CC2)C(CO)(c1ccccc1)c1ccccc1 (stereo not drawn)	inactive: 1.2
